{"sequences": {"note": "Chains of the proteins cited; added tags and fusions are not shown. Lines headed by an entry give the natural chain unless they say otherwise; changes in a name come on top.", "UniProt P9WPP1": "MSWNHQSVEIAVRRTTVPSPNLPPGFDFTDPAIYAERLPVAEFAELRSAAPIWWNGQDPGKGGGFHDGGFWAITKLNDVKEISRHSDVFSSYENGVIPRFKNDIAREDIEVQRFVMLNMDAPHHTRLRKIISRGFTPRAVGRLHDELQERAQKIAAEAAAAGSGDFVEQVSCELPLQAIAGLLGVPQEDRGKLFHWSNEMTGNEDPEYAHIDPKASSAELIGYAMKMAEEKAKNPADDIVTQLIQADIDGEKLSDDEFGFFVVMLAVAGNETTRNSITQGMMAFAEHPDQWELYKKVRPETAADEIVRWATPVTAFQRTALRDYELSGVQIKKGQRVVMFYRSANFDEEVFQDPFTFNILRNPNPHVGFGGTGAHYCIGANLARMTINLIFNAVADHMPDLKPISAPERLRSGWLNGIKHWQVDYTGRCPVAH", "UniProt P9WPL5": "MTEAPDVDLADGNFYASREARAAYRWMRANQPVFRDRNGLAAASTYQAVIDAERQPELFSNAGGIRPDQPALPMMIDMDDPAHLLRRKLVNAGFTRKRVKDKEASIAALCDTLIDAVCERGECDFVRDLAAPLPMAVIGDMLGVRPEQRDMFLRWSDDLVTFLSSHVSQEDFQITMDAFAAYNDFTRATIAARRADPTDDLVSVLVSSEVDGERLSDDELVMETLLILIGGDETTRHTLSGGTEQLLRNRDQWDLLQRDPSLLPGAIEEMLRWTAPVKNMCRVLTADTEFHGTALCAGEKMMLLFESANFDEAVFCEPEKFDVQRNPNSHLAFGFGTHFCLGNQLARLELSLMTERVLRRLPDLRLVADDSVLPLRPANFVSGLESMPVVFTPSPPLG"}, "source": "paper PMC12305662", "about": "“Fragment-Based Development of Small Molecule Inhibitors Targeting Mycobacterium tuberculosis Cholesterol Metabolism” (Journal of Medicinal Chemistry, 2025)", "key": {"CYP125 [1]": {"biological_target": "T1, CYP125 (Mycobacterium tuberculosis, UniProt P9WPP1)", "assay_type": "binding", "settings": "compound 100 µM, P450 5 µM; ratio of low spin to high spin CYP125"}, "CYP142": {"biological_target": "CYP142 (Mycobacterium tuberculosis, UniProt P9WPL5)", "experiment": "biochemical"}, "CYP125 [2]": {"biological_target": "T1, CYP125", "assay_type": "binding"}}}
{"smiles": "c1ccc(Cc2ccncc2)cc1", "note": "[1a]", "values": [{"measurement": "CYP125 LS/HS", "setting": "CYP125 [1]", "result": 1.1}, {"measurement": "Kd", "setting": "CYP142", "result": "1800 ± 200", "unit": "nM"}, {"measurement": "ligand efficiency (LE)", "setting": "CYP125 [2]", "result": "0.4–0.6"}]}
